From patent US11123340B2, “Small-molecule UT-A-selective urea transport inhibitors” (The Regents of the University of California, priority 2014, dated 2021)

Sequences of proteins named here, by UniProt entry; tags and fusion partners are left off.
UniProt P97689, whole entry: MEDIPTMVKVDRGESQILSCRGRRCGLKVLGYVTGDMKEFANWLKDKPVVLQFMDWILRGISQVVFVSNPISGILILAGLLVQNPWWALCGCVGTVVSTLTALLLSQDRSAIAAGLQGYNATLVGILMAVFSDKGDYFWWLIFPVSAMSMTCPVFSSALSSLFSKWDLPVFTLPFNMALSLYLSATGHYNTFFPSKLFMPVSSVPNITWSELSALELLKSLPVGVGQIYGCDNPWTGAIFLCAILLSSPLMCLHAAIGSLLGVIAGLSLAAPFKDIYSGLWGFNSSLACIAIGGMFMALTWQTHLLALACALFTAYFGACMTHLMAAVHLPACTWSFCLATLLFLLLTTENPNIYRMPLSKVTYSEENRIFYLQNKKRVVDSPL
UniProt Q62668, whole entry: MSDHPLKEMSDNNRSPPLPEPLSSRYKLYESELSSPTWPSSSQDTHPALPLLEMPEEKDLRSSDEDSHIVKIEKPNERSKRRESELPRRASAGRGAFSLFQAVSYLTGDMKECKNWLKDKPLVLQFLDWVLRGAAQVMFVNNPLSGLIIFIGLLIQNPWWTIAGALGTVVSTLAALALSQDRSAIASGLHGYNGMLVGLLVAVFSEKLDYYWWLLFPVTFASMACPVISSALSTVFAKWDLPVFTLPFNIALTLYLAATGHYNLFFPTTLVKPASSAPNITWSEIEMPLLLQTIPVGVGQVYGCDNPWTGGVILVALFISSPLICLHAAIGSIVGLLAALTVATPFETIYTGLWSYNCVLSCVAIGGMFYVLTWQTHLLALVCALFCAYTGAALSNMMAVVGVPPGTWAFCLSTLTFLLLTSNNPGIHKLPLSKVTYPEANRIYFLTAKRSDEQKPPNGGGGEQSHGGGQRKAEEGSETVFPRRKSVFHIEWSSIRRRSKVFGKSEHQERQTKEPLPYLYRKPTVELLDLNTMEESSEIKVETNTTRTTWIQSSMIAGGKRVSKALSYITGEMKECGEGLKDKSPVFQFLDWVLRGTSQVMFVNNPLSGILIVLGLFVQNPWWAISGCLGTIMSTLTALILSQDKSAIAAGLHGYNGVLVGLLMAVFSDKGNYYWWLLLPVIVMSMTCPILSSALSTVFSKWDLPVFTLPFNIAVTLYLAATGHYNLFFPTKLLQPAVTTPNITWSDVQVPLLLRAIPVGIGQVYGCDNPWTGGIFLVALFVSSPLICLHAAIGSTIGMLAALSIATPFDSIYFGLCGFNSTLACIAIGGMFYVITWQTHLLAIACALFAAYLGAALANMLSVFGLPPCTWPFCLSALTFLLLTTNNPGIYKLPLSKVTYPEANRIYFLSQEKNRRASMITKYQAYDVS

Columns and labels:
rat UT-B = rat UT-B (Rattus norvegicus, UniProt P97689); experiment: UT-B inhibition, erythrocyte lysis assay; conditions: read-out: IC50 (μM) UT-B; rat erythrocytes
Protocol: As described (see, e.g., Levin et al. (2007) FASEB J. 21, 551-563), whole rat blood was diluted to a hematocrit of ˜1.5% in PBS containing 1.25 M acetamide and 5 mM glucose. Erythrocyte suspensions (100 μL) were added to 96-well round-bottom microplates and test compounds (1 μL) were added. After 15 min incubation, 20 μL of the erythrocyte suspension was added rapidly to each well containing 180 μL of PBS. Following vigorous mixing, erythrocyte lysis was quantified by absorbance at 710 nm. Non-lysed controls (isosmolar buffer) and lysed controls (0.7 mM phloretin) were added in each plate as negative and positive controls, respectively. Percentage erythrocyte lysis was computed as: % lysis=100% (Aneg−Atest)/(Aneg−Apos), where A is absorbance at 710 nm.
Inhibitor selectivity for rat UT-A1 versus UT-B was investigated using an erythrocyte lysis assay of rat UT-B urea transport, which involved measurement of hypotonic lysis (by near-infrared absorbance) of acetamide-loaded erythrocytes following rapid dilution into acetamide-free buffer.

rat UT-A1 = rat UT-A1 (Rattus norvegicus, UniProt Q62668); experiment: UT-A1 inhibition, fluorescence plate reader assay in MDCK cells expressing UT-A1, AQP1 and YFP-H148Q/V163S; conditions: read-out: IC50 (μM) UT-A1
Protocol: Primary screening was done using a collection of 50,000 chemically diverse, drug-like compounds from ChemDiv (San Diego, Calif.). For analysis of structure-activity relationships, >300 commercially available analogs (ChemDiv and Asinex, Winston-Salem, N.C.) were tested. Cells were plated on black 96-well Costar microplates with clear plastic bottoms (Corning, Corning, N.Y.) at 15,000 cells/well and cultured for 24 h at 37° C. before assay. Microplates containing cultured cells were washed twice with PBS and 150 μL of test compound (25 μM final) in PBS was added. Eighty wells contained test compounds, and the first and last columns of each plate contained negative (dimethyl sulfoxide, DMSO) and positive (0.35 mM phloretin) controls. The assays were done on a plate reader (Tecan Trading AG, Switzerland) equipped with a custom YFP filter set. Each assay consisted of a continuous 15-s read (5 Hz) in which 50 μL of 3.2 M urea in PBS was injected at 1 s (at 130 μL/s) to give a 800 mM final urea gradient.
MDCK cells stably expressing rat UT-A1 (see, e.g., Frohlich et al. (2006) Am J Physiol Cell Physiol. 291, C600-D606), YFP-H148Q/V163 S (see, e.g., Galietta, et al. (2001) FEBS Lett. 499, 220-224) and human AQP1, as described previously (see, e.g., Esteva-Font et al. (2013) Chem Biol. 20, 1235-1244), were grown in Dulbecco's modified Eagle medium (DMEM) containing 10% fetal bovine serum (FBS), penicillin G (100 U/mL), streptomycin (100 μg/mL), zeocin (500 μg/mL), geneticin (600 μg/mL) and Hygromycin (500 μg/mL) at 37° C., 5% CO2. A Cell Clone with bright YFP fluorescence and relatively low AQP1 expression was used for the screen to maximize dynamic range.
In order to identify UT-A inhibitors suitable for testing in rats, a collection of 50,000 synthetic small molecules was screened. As diagrammed in FIG. 1A (top), the fluorescence cell-based screen utilized MDCK cells stably rat expressing UT-A1, water channel AQP1 and the cytoplasmic chloride-sensing fluorescent protein YFP-H148Q/V163S. As described and validated previously (see, e.g., Esteva-Font et al. (2013) Chem Biol. 20, 1235-1244), extracellular addition of urea results in osmotic water efflux and cell shrinking, which increases intracellular chloride concentration and reduces YFP fluorescence. Urea entry results in increasing YFP fluorescence as cells re-swell. Inhibitors of UT-A1 urea transport produce a lesser reduction in fluorescence and slowed recovery.

Row | Structure (SMILES) | IC50 (rat UT-B) [µM] | IC50 (rat UT-A1) [µM]
1 | CCS(=O)(=O)N1CCCc2ccc(NS(=O)(=O)c3cc(C)c(C)cc3OC)cc21 | 12 | 6
2 | CCCS(=O)(=O)N1CCCc2ccc(NS(=O)(=O)c3cc(C)c(C)cc3OC)cc21 | 12 | 10

Other lines, results leading:

Row | IC50 (rat UT-B) [µM] | IC50 (rat UT-A1) [µM] | Structure (SMILES)
3 | 10 | 6 | CCc1ccc(OC)c(S(=O)(=O)Nc2ccc3c(c2)N(S(=O)(=O)CC)CCC3)c1
4 | 6 | 2.5 | CCCS(=O)(=O)N1CCCc2ccc(NS(=O)(=O)c3cc(Cl)ccc3OC)cc21
5 | 5 | 20 | CCS(=O)(=O)N1CCCc2ccc(NS(=O)(=O)c3cc(C)ccc3OC)cc21
